Test results: patent US8048915B2, “Biologically active complex” (BioMas Ltd., priority 2001, dated 2011)

System: IL-2 receptors of human mononuclear cells
Test: Induction of IL-2 receptors of human mononuclear cells (proliferation with recombinant IL-2, 3H thymidine uptake)
Format: cell-based
Settings: cell plus recombinant IL2, 1.5 × 10^−6 units

Substance: recombinant IL2 (human) Biogen: recombinant human IL2 added to cells without test chemical
- proliferation, 3HT uptake (Test A): ^yCell plus recombinant IL2 (human) Biogen 1.5 × 10^−6 units −3260 counts per minute
- proliferation, 3HT uptake (Test B): Cell plus recombinant IL2 (human) Biogen 1.5 × 10^−6 units 6858. counts per minute
